Data from ChEMBL document CHEMBL4814005, “Pragmatic recruitment of memantine as the capping group for the design of HDAC inhibitors: A preliminary attempt to unravel the enigma of glioblastoma” (Eur J Med Chem, 2021).

Amino acid sequences for entries named in this document (tags omitted).
UniProt Q13547, whole entry: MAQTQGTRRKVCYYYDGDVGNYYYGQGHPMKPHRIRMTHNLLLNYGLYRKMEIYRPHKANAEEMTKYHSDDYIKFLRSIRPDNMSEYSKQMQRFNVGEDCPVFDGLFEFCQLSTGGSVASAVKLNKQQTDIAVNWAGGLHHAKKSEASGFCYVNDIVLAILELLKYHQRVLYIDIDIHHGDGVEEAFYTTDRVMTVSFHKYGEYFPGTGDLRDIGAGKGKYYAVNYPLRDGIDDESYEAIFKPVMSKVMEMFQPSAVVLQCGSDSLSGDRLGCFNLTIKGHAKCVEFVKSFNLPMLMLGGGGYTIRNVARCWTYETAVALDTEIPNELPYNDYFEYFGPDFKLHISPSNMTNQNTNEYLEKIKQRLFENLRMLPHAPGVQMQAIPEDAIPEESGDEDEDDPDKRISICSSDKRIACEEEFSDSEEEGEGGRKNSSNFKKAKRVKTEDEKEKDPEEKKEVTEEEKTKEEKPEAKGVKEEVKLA

Target: Histone deacetylase 1 (Homo sapiens, UniProt Q13547)
Assay: Inhibition of human recombinant HDAC1 expressed in baculovirus infected insect cells using [RHKK(Ac)] fluorogenic substrate

IC50: 1.33 µM
Compound: CC12CC3CC(C)(C1)CC(NCc1ccc(/C=C/C(=O)NO)cc1)(C3)C2
